From patent publication EP4813992A1, “POLYARYL DERIVATIVE AND USE THEREOF” (Hangzhou HealZen Therapeutics Co., Ltd., priority 2023, dated 2025)

The chains behind the UniProt entries cited, without tags or fusion partners.
UniProt Q92918, whole entry: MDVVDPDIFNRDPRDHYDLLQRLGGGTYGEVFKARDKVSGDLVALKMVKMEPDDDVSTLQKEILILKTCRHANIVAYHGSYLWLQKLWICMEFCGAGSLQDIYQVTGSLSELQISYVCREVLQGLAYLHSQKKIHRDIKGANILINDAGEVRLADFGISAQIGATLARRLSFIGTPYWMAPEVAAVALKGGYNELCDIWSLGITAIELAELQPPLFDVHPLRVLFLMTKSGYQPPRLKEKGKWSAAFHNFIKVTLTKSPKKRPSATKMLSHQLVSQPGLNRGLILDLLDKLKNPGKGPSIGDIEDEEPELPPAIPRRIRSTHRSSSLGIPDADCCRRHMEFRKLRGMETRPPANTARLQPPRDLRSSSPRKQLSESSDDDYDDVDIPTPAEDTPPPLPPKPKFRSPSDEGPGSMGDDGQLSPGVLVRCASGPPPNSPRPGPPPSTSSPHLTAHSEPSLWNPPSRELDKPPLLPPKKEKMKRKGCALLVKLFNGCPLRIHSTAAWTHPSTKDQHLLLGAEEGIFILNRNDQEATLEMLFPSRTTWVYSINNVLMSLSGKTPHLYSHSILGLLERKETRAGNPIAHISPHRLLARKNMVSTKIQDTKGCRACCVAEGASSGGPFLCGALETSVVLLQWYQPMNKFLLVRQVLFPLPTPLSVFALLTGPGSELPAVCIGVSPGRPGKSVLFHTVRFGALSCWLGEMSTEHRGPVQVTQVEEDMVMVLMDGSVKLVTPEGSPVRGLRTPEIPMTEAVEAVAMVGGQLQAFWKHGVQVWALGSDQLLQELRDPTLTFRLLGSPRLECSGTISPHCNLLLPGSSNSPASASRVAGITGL

Legend:
HPK1 kinase [1] = target: T1, HPK1 kinase (Homo sapiens, UniProt Q92918); test: Lantha screen assay, inhibitory effect on HPK1 kinase
HPK1 kinase [2] = target: T1, HPK1 kinase; test: Activity of degrading HPK1 in Jurkat cells (Western blot, 24 h); format: cell-based; settings: HPK1 protein degradation, class symbols
HPK1/GLK = test: Selectivity of degrading HPK1/GLK in Jurkat cells (Western blot, 24 h); settings: HPK1/GLK Fold = DC50 (HPK1) / DC50 (GLK)
[3] = read-out: HPK1 IC50, initial compound concentration 1 µM

| IC50 (HPK1 kinase [1]; read-out: HPK1 IC50, initial compound concentration 1 µM, tested form: free base) | IC50 (HPK1 kinase [1]; [3]) | DC50 (HPK1 kinase [2]) | SMILES | HPK1/GLK Fold (HPK1/GLK) |
| --- | --- | --- | --- | --- |
| < 10 nM | – | – | Cc1cc(N2CC(CN3CC=C(c4c(C)cc(-c5cnc6[nH]cc(-c7cnn(C8CN(C(C)C)C8)c7)c6c5)cc4C)CC3)C2)ccc1N1CCC(=O)NC1=O | – |
| – | < 10 nM | – | Cc1cc(N2CC3C(CN4CC=C(c5c(C)cc(-c6cnc7[nH]cc(-c8ccc(C(=O)N(C)C)cc8)c7n6)cc5C)CC4)C3C2)ccc1N1CCC(=O)NC1=O (stereo not drawn) | – |
| – | < 10 nM | – | Cc1cc(-c2cnc3[nH]cc(-c4cnc5c(c4)CN(C)CC5)c3n2)cc(C)c1C1=CCN(CC2CN(c3ccc(C(=O)NC4CCC(=O)NC4=O)cc3)C2)CC1 (stereo not drawn) | – |
| – | < 10 nM | < 10 nM | Cc1cc(-c2cnc3[nH]cc(-c4ccc(C(C)(F)F)cc4)c3n2)cc(C)c1C1=CCN(CC2CN(c3ccc(N4CCC(=O)NC4=O)c(F)c3)C2)CC1 | ++++ (1000≤Fold) |

Where two headings read alike, the source gives them in different places.
